The text below walks through data of patent US20040224922A1, “Use of charged dextran as a mucoactive agent and methods and pharmaceutical compositions relating thereto” (priority 1999, published 2004).

This data set in a line: Osmotic pressure of DexSO4 solutions by vapor pressure osmometer. It is filed as physicochemical.

As to Dextran sulfate, sodium salt [DexSO4], the “excess osmolarity over Ringer's” value by setting is: (6.5 mg/ml DexSO4 in Ringer solution) 15 mOsm; (20 mg/ml DexSO4 in Ringer solution) 45 mOsm; (65 mg/ml DexSO4 in Ringer solution) 141 mOsm.
